Test results published in US20090306091A1, “ANTIMALARIAL THERAPY USING A COMBINATION OF SYNTHETIC ARTEMISININ DERIVATIVE AND BISQUINOLINE DERIVATIVE” (priority 2006, published 2009).

Test system: female rabbits
Assay: Embryo-fetal assessment study in female rabbits, oral administration (ICH guideline, GLP)

## CC(C)(N)CNC(=O)CC1CCC2(CC1)OOC1(O2)C2CC3CC(C2)CC1C3 (stereo not shown)
Female rabbits, 30 mg/kg body weight/day
  food consumption: slight reduction
Female rabbits, 10 and 30 mg/kg/day
  mortality/clinical signs, changes in mean body weight and post-implantation loss: no mortality/clinical signs, changes in mean body weight and post-implantation loss
Female rabbits, any dose level
  macroscopic findings and fetal anomalies: No macroscopic findings and fetal anomalies
Up to and including a dosage of 90 mg/kg body weight/day
  teratogenic potential: did not reveal any teratogenic potential
